We go through one compound from ChEMBL document CHEMBL1132186, “Structure-based design of selective inhibitors of dihydrofolate reductase: synthesis and antiparasitic activity of 2, 4-diaminopteridine analogues with a bridged diarylamine side chain” (J Med Chem, 1999).

Broadly, the IC50 is the midpoint of a concentration-inhibition curve. High values mean lower potency, low ones higher potency.

In the test the target is T1, Dihydrofolate reductase (Mycobacterium avium, UniProt O30463).
T1 sequence (O30463 whole entry): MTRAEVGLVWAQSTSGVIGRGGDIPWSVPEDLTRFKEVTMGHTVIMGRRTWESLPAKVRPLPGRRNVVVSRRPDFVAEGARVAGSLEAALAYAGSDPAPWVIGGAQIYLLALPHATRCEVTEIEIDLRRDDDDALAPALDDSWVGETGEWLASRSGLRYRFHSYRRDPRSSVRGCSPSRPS
The test can be described thus: Inhibitory activity against DHFR (Dihydrofolate reductase) from Mycobacterium avium.

In turn, `Nc1nc(N)c2nc(CN3c4ccccc4Oc4ccccc43)cnc2n1` had an IC50 of 2500 nM.
